Results taken from publication PMC9834252.

Columns and labels:
[1] = biological target: HOIL-1 helix-RBR (WT) (human) (UniProt Q9BYM8)
[2] = biological target: HOIP RBR (amino acids 696–1072) (human) (UniProt Q96EP0)

Substance | EC50 of activation of HOIL-1 helix-RBR catalysed UbcH7-Ub discharge, di-Ub 0–40 µM [1] | EC50 of activation of HOIP chain formation and transthiolation (HOIP-Ub thioester formation) [2]
K63 linked di-Ub (from UniProt P0CG48 1-76) (complex) | 18 µM | 
blocked M1-linked di-Ub (GPG-di-UbΔC-term Gly) (from UniProt P0CG48 1-76; P0CG48 1-76) |  | 19.9 µM
